# Residue numbers refer to the chain shown, from its start.
# B1: recombinant 6xHis-tagged ySir2p mutant Asn-345 (to alanine) (protein)
# chain: HHHHHHMTIPHMKYAVSKTSENKVSNTVSPTQDKDAIRKQPDDIINNDEPSHKKIKVAQPDSLRETNTTDPLGHTKAALGEVASMELKPTNDMDPLAVSAASVVSMSNDVLKPETPKGPIIISKNPSNGIFYGPSFTKRESLNARMFLKYYGAHKFLDTYLPEDLNSLYIYYLIKLLGFEVKDQALIGTINSIVHINSQERVQDLGSAISVTNVEDPLAKKQTVRLIKDLQRAINKVLCTRLRLSNFFTIDHFIQKLHTARKILVLTGAGVSTSLGIPDFRSSEGFYSKIKHLGLDDPQDVFNYNIFMHDPSVFYNIANMVLPPEKIYSPLHSFIKMLQMKGKLLRNYTQAIDNLESYAGISTDKLVQCHGSFATATCVTCHWNLPGERIFNKIRNLELPLCPYCYKKRREYFPEGYNNKVGVAASQGSMSERPPYILNSYGVLKPDITFFGEALPNKFHKSIREDILECDLLICIGTSLKVAPVSEIVNMVPSHVPQVLINRDPVKHAEFDLSLLGYCDDIAAMVAQKCGWTIPHKKWNDLKNKNFKCQEKDKGVYVVTSDEHPKTL
# B2: recombinant 6xHis-tagged ySir2p mutant Asp-347 (to alanine) (protein)
# chain: B1 chain with A351N, D353A
# B3: recombinant 6xHis-tagged ySir2p mutant Thr-261 (to alanine) (protein)
# chain: B1 chain with T267A, A351N
# B4: recombinant 6xHis-tagged ySir2p mutant Gly-270 (to alanine) (protein)
# chain: B1 chain with G276A, A351N
# B5: recombinant 6xHis-tagged ySir2p mutant Iso-271 (to alanine) (protein)
# chain: B1 chain with I277A, A351N
# B6: recombinant 6xHis-tagged ySir2p mutant Arg-275 (to alanine) (protein)
# chain: B1 chain with R281A, A351N
# Target: histone H3 (calf thymus), intact protein
row,Protein,ADP-ribosyltransferase activity (32P-NAD)
1,B1,Mutants 345 and 347 were completely inactive
2,B2,Mutants 345 and 347 were completely inactive
3,B3,"mutants 261, 270, and 271 displayed very weak activity, 4%, 7%, and 8%, respectively"
4,B4,"mutants 261, 270, and 271 displayed very weak activity, 4%, 7%, and 8%, respectively"
5,B5,"mutants 261, 270, and 271 displayed very weak activity, 4%, 7%, and 8%, respectively"
6,B6,mutant 275 was about as active as wild type

# From patent publication US8642284
